ChEMBL document CHEMBL4257588, “Selective Inhibitors of Human Neuraminidase 1 (NEU1)” (J Med Chem, 2018)

How the values were obtained:
Homo sapiens [1] = species on record: Homo sapiens; test: Selectivity index, ratio of IC50 for inhibition of N-terminal MBP-fused human NEU2 expressed in Escherichia coli to IC50 for inhibition of human His6-tagged NEU1 expressed in HEK293 cells
Homo sapiens [2] = species on record: Homo sapiens; test: Selectivity index, ratio of IC50 for inhibition of N-terminal MBP-fused human NEU3 expressed in Escherichia coli to IC50 for inhibition of human His6-tagged NEU1 expressed in HEK293 cells

`CCCCCC(=O)N[C@H]1[C@H]([C@H](O)[C@H](O)CNC(C)=O)OC(C(=O)O)=C[C@@H]1O` was tested, and the Ratio IC50 (Homo sapiens [1]) was 340 and the Ratio IC50 (Homo sapiens [2]) was 340.
